Data from patent publication EP0604352B1, “Aryl-substituted heterocyclic compounds” (N[…]/S, priority 1992, dated 1994).

By UniProt entry, the sequences of proteins in these tests, tags left out.
UniProt P23977, whole entry: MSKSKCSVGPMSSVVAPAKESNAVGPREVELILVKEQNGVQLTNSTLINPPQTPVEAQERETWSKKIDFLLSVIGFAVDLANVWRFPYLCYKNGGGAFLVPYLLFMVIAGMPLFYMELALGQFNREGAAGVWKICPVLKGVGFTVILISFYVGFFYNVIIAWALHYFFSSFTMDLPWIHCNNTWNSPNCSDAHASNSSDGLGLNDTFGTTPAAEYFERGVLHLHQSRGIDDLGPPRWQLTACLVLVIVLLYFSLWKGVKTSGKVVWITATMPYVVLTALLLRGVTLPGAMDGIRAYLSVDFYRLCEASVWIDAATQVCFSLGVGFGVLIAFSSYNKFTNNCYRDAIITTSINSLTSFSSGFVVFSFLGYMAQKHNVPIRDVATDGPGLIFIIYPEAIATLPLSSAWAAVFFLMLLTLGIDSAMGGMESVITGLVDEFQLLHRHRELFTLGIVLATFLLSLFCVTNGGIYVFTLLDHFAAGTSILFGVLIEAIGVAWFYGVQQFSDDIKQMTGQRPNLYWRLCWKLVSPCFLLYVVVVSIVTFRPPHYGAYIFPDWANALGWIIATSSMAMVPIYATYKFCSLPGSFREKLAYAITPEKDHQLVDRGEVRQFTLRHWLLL

Target: T1, reuptake of dopamine in synaptosomes of rat forebrain (Rattus norvegicus, UniProt P23977)
T1 construct: from tissue; host or cells: whole forebrain of male Wistar rats (crude synaptosomal supernatant)
Test: inhibition of reuptake of dopamine (3H-dopamine) in synaptosomes
Type: biochemical
Conditions: ratio to Win 35,428

**Q.** `COC(=O)[C@@H]1[C@@H](c2ccc(F)cc2)C[C@@H]2CC[C@H]1N2C` [trans isomer of Win 35,428, (1R,2R,3S)-2-carbomethoxy-3-(4-fluorophenyl)tropane, reference compound] was tested. Which “times less potent as compared to the cis isomer (Win 35,428) as a dopamine reuptake inhibitor” value did it give?
**A.** ~50 times
